Laboratory results taken from patent US12076315B2 (Clear Creek Bio, Inc., priority 2020, dated 2024).

Assay: Stability of Pattern C under vacuum drying
Settings: vacuum drying condition of 50° C. for 18 h

SMILES: Cc1c(-c2ccc(-c3ccccc3F)cc2)nc2ccc(F)cc2c1C(=O)[O-].[Na+] [Pattern C, 6-Flouro-2-(2′-fluoro-1,1′-biphenyl-4-yl)-3-methyl-4-quinolinecarboxylic acid sodium salt]
- Polymorphic form after vacuum drying: remains the same
